Laboratory results taken from patent publication US9974839B2, “Self-assembled toroidal-spiral particles and manufacture and uses thereof” (THE BOARD OF TRUSTEES OF THE UNIVERSITY OF ILLINOIS, priority 2009, dated 2018).

Settings: BSA in bulk phase of 61 wt % glycerol, 35 wt % ethanol, 3.6 wt % DI water, 0.4 wt % BSA

bovine serum albumin [BSA]
conformation of BSA by circular dichroism (CD): confirmed
